Literature values, collected in PMC11221189, “Gut microbiota DPP4-like enzymes are increased in type-2 diabetes and contribute to incretin inactivation” (Genome Biology, 2024).

Experiments:
[1] = system: DPP4-like enzyme from B. thetaiotaomicron; details: cited from earlier work
[2] = system: DPP4 activity in the contents of the cecum and feces; details: mice; cited from earlier work

N[C@@H](CC(=O)N1CCn2c(nnc2C(F)(F)F)C1)Cc1cc(F)c(F)cc1F [Sitagliptin, sitagliptin]
Inhibition range of B. thetaiotaomicron DPP4-like enzyme [1]: ~10^−6

N#C[C@@H]1CCCN1C(=O)CNC12CC3CC(CC(O)(C3)C1)C2 [Vildagliptin, vildagliptin]
DPP4 activity in the contents of the cecum and feces [2]: abolished
